Experimental data: patent publication US7282344B2, “Cation conducting GABAA receptors and their use” (Neurosearch A/S, priority 2001, dated 2007)

The chains behind the UniProt entries cited, without tags or fusion partners. Residues count along the entry.
UniProt P18507, 40-475 limits assumed: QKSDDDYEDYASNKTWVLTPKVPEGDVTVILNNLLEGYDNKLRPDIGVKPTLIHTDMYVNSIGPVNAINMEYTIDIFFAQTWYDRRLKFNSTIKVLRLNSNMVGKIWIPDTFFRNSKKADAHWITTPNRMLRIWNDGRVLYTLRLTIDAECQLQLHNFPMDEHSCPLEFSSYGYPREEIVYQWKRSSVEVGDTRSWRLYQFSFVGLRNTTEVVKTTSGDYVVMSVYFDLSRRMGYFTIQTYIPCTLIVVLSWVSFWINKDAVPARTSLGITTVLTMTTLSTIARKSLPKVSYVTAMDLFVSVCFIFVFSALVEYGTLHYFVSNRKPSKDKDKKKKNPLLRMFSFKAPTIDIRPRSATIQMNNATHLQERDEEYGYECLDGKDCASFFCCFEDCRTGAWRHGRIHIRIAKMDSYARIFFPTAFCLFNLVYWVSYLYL
UniProt P28472, 26-473 limits assumed: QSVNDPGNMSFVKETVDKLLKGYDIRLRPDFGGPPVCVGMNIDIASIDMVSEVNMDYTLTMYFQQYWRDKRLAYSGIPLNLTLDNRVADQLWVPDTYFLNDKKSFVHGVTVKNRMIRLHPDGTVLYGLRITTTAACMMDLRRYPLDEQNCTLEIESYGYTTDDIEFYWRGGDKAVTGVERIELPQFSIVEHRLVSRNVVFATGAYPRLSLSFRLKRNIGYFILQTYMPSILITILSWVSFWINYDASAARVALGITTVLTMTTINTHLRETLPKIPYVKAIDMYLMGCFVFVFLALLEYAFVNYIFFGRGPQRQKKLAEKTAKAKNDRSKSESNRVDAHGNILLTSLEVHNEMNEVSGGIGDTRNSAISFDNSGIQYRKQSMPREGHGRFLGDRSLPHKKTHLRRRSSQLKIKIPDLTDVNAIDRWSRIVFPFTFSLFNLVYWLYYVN
UniProt P47869, 29-451 limits assumed: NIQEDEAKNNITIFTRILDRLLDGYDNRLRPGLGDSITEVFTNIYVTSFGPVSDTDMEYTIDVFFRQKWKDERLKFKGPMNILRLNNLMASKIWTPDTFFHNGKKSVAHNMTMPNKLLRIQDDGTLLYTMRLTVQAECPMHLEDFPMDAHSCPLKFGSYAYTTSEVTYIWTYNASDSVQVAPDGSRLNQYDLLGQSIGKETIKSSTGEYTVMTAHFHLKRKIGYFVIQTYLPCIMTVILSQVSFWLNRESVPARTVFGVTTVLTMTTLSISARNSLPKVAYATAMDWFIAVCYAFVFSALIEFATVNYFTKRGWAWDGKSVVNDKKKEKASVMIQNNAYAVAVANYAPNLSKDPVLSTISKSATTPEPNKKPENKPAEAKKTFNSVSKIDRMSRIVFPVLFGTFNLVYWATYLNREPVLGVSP

Target: GABAA receptor α2 β3 γ2 (wt) (Homo sapiens, UniProt P18507+P28472+P47869)
Test: [^35S]-TBPS binding, wild-type receptor
Conditions: 5 nM [^35S]-TBPS, 0.6 μM GABA

TBPS
[^35S] TBPS binding: + ((+) indicates more and (÷) indicates less than 2.5% binding of the wt receptor)
